In US20110144018A1, “AGENT FOR PROPHYLAXIS OF REFLEX SYMPATHETIC DYSTROPHY AFTER CEREBRAL APOPLEXY” (priority 2006, published 2011):

What was measured:
[1] = tested on: patients with hemiplegia attributed to cerebrovascular disease (stroke), post-stroke RSD (shoulder-hand syndrome); parameters: species or system human; conditions: in vivo
Description: Test subjects were 33 patients with hemiplegia attributed to cerebrovascular disease (stroke) at Brunnstrom stage III or lower in either the upper limb or a finger on admission. Patients already developing RSD (shoulder-hand syndrome) on admission and patients with pain in the shoulder joint or swollen paralyzed limbs were excluded from the test. To 12 of these 33 test subjects, 20 units of elcatonin (Elcitonin Injection 20S; Asahi-Kasei Pharma; hereinafter, referred to as EL) were intramuscularly administered once a week immediately after admission (EL administration group). On the other hand, 21 test subjects were classified into a rehabilitation alone group (control group) and compared with the EL administration group. Physical therapy and therapeutic exercise, occupational therapy, and the management of the paralyzed limbs were performed thoroughly in all the cases. […] EL administration was initiated 11 to 59 days after an attack of stroke (25.8 days on average) and continued until 5 months after the attack of stroke. The same observation period was applied to the control group. […]
Activities of daily living (ADL) were evaluated on the basis of the Barthel Index (BI) and the range of motion (ROM) of shoulder joint. […]

[2] = Dose relative to drip infusion in vein, from serum concentration; assay type: in vivo; conditions: intramuscular versus drip infusion in vein; company data
[3] = in vivo; cited from earlier work

For “1-butyric acid-7-(L-2-aminobutyric acid)-26-L-aspartic acid-27-L-valine-29-L-alanine-calcitonin [EL]”, the “Side effects during the test period” value [1] is listed as “no significant or serious side effect”, the “Intramuscular dose relative to drip infusion in vein for equal maximum serum concentration” value [2] is listed as “approximately 1.5 times” and the “Maximum serum concentration compared with 200 units transnasal salmon calcitonin (37 pg/mL)” value [3] is listed as “almost the same concentration”.
